From patent US7192924B2, “Corticotropin releasing factor 2 receptor agonists” (priority 2002, dated 2007)

Columns and labels:
CRF2R = molecular target: T1, CRF2R (Homo sapiens, UniProt Q13324); experiment: CRF2R agonist activity (EC50, Emax), called comparative CRF binding; assay type: cell-based
T1 sequence (Q13324 1-411): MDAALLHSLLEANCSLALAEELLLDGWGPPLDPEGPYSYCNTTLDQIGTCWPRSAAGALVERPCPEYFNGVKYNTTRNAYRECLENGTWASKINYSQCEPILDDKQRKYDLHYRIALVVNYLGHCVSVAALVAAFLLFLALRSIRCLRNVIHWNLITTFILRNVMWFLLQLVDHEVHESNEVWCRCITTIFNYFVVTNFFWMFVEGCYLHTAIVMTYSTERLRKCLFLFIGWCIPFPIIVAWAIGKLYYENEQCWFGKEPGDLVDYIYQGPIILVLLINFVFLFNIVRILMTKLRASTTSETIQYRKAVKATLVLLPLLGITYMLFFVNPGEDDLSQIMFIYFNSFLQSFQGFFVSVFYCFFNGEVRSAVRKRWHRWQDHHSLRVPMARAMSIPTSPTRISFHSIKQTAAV
In short: (§1)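 cAMP read-out: CRE-linked reporter (e.g. luciferase, CAT, GFP) or lysate cAMP in CRF1R- or CRF2R-expressing cells after peptide exposure; vehicle control comparison. Signal from any non-target CRFR subtracted.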

CRF1R = molecular target: T2, CRF1R (Homo sapiens, UniProt P34998); experiment: CRF1R agonist activity (EC50, Emax), called comparative CRF binding; assay type: cell-based
T2 sequence (P34998 24-415): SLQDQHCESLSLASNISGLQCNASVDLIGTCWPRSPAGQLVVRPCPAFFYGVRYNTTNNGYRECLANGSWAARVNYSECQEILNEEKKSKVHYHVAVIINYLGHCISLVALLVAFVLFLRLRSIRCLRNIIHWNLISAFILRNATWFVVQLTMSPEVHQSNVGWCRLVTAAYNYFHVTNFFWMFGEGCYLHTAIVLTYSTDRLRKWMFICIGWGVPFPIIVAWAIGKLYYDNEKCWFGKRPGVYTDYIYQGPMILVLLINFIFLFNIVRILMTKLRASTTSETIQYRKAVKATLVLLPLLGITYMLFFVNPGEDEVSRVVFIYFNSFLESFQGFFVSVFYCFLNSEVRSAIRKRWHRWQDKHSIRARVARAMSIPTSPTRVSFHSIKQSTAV
In short: as §1

| Compound | EC50 (CRF2R; read-out: CRF2R EC50) [nM] | EC50 (CRF1R; read-out: CRF1R EC50) [nM] | EC50 (CRF2R) [nM] | EC50 (CRF1R) [nM] |
| --- | --- | --- | --- | --- |
| CC[C@H](C)[C@H](NC(=O)[C@@H](NC(=O)[C@H](CC(=O)O)NC(=O)[C@H](CC(C)C)NC(=O)[C@H](CC(C)C)NC(=O)[C@H](CC(C)C)NC(=O)[C@H](CCCNC(=N)N)NC(=O)[C@H](CC(N)=O)NC(=O)[C@H](CC(N)=O)NC(=O)[C@@H](NC(=O)[C@H](C)NC(=O)[C@H](CCC(N)=O)NC(=O)[C@H](CCC(N)=O)NC(=O)[C@H](CCCCN)NC(=O)[C@H](CCC(=O)O)NC(=O)[C@H](CCCCN)NC(=O)[C@H](CCC(=O)O)NC(=O)[C@H](CCC(N)=O)NC(=O)[C@H](CCCCN)NC(=O)[C@H](CCC(=O)O)NC(=O)[C@@H](NC(=O)[C@H](CCC(=O)O)NC(=O)[C@@H](NC(=O)[C@H](CCSC)NC(=O)[C@H](CCCCN)NC(=O)[C@H](CCCNC(=N)N)NC(=O)[C@H](CC(C)C)NC(=O)[C@H](CC(C)C)NC(=O)[C@H](CCC(N)=O)NC(=O)[C@H](Cc1ccccc1)NC(=O)[C@@H]1CCCN1C(=O)[C@H](CC(C)C)NC(=O)[C@H](CC(=O)O)NC(=O)[C@@H](NC(=O)[C@H](CO)NC(=O)[C@@H](NC(=O)[C@@H]1CCCN1C(=O)[C@@H]1CCCN1C(=O)CNC(=O)[C@@H]1CCC(=O)N1)[C@@H](C)CC)[C@@H](C)CC)[C@@H](C)CC)[C@@H](C)CC)[C@@H](C)O)[C@@H](C)O)C(N)=O [compound 14] | 6.33 | 109 |  |  |
| CC[C@H](C)[C@H](NC(=O)[C@H](CCCNC(=N)N)NC(=O)[C@H](C)NC(=O)[C@H](CC(C)C)NC(=O)[C@H](CC(C)C)NC(=O)[C@H](CCCNC(=N)N)NC(=O)[C@H](C)NC(=O)[C@H](CC(N)=O)NC(=O)[C@H](CC(N)=O)NC(=O)[C@H](C)NC(=O)[C@H](C)NC(=O)[C@H](CCC(N)=O)NC(=O)[C@H](CCC(N)=O)NC(=O)[C@H](CCCCN)NC(=O)[C@H](CCC(=O)O)NC(=O)[C@H](CCCCN)NC(=O)[C@H](CCC(=O)O)NC(=O)[C@H](CCC(N)=O)NC(=O)[C@H](CCCCN)NC(=O)[C@H](CCC(=O)O)NC(=O)[C@@H](NC(=O)[C@H](CCC(=O)O)NC(=O)[C@@H](NC(=O)[C@H](CCSC)NC(=O)[C@H](CCCCN)NC(=O)[C@H](CCCNC(=N)N)NC(=O)[C@H](CC(C)C)NC(=O)[C@H](CC(C)C)NC(=O)[C@H](Cc1ccccc1)NC(=O)[C@@H](NC(=O)[C@@H]1CCCN1C(=O)[C@H](CC(C)C)NC(=O)[C@H](CC(=O)O)NC(=O)[C@@H](NC(=O)[C@H](CO)NC(=O)[C@@H](NC(=O)[C@@H]1CCCN1C(=O)[C@@H]1CCCN1C(=O)CNC(=O)[C@@H]1CCC(=O)N1)[C@@H](C)CC)[C@@H](C)CC)[C@@H](C)CC)[C@@H](C)CC)[C@@H](C)CC)C(N)=O [compound 282] |  |  | 25.8 | ≥ 1000 |

Like-named read-outs stand apart in the source and are kept apart here.
